Assay results reported in BindingDB's records for doi:10.1021/cb900218c (Case Western Reserve University, 2010).

Chains of the proteins cited; added tags and fusions are not shown. Lines headed by an entry give the natural chain unless they say otherwise; changes in a name come on top.
UniProt P06710: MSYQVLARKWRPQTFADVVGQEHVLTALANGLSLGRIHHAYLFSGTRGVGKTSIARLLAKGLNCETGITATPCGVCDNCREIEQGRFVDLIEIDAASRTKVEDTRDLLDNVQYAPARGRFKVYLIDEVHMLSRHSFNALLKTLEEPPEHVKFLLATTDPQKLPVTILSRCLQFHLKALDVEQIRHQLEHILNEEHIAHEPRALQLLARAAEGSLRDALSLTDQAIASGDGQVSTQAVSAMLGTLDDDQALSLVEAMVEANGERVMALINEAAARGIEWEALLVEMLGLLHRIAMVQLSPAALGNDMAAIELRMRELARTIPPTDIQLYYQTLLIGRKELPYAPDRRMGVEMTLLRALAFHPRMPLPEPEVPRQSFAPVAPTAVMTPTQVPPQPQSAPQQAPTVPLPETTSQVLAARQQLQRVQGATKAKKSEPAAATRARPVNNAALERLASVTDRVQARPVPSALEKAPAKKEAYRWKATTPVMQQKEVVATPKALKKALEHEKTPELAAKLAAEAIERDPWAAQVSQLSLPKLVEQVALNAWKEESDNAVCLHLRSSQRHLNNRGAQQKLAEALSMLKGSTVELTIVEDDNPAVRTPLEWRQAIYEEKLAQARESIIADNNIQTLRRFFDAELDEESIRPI

Experiments:
Assay in all cases: colorimetric ATPase assay
[1] = target: Complex of Sliding-clamp-loader large subunit [R175K] and Sliding-clamp-loader small subunit (Enterobacteria phage T4, UniProt P04526, R175K); conditions: pH 7.5; 25 °C
Experimental: (§1) ATPase assay contained 10 mM Mg2+, 1uM 13/20 DNA, 500uM (r)NTP or (d)NTP, 500 nM gp45, and 500 nM gp44/62 in T4 buffer. ATPase activity was measured by monitoring the release of Pi using a malachite green assay (31) or via the hydrolysis of [gamma-32P]-ATP. Reaction inhibition studies used identical conditions except for the inclusion of variable concentrations of inhibitor (0-400 uM) and a fixed concentration of ATP (32.5 nM [gamma-32P]-ATP and 100 uM unlabeled ATP).

[2] = target: Complex of Sliding-clamp-loader large subunit [R175L] and Sliding-clamp-loader small subunit (Enterobacteria phage T4, UniProt P04526, R175L); conditions: pH 7.5; 25 °C
Experimental: as §1

[3] = target: T1, Sliding-clamp-loader large/small subunit (Enterobacteria phage T4, UniProt P04526+P04527); conditions: pH 7.5; 25 °C
T1 sequence (P04526 whole entry): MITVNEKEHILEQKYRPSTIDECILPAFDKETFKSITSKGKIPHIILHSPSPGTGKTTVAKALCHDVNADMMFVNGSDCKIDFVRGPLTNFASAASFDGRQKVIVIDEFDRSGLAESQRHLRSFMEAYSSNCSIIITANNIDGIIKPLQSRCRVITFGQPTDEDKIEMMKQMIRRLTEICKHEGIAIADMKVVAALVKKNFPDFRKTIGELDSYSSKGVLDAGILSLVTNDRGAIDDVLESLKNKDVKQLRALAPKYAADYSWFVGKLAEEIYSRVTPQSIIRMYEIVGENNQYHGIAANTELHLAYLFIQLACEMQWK
T1 sequence (P04527 whole entry): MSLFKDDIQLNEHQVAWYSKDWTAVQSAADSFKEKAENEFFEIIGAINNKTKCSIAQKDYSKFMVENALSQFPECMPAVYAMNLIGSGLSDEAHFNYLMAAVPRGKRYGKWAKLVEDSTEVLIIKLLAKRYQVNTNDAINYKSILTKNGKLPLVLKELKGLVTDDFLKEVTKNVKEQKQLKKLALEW
Experimental: as §1

[4] = target: DNA polymerase III subunit tau (Escherichia coli, UniProt P06710); conditions: pH 7.5; 37 °C

| Compound | Ki [1] [µM] | Ki [2] [µM] | Ki [3] [µM] | Ki [4] [µM] |
| --- | --- | --- | --- | --- |
| O=C(O)c1ccc2c(ccn2[C@H]2C[C@H](O)[C@@H](COP(=O)(O)OP(=O)(O)OP(=O)(O)O)O2)c1 [5-carboxylate-indolyl-2'-deoxyriboside triphosphate] | 40.6 | < 200 | 37 | 40 |
| O=[N+]([O-])c1ccc2c(ccn2[C@H]2C[C@H](O)[C@@H](COP(=O)(O)OP(=O)(O)OP(=O)(O)O)O2)c1 [5-nitro-indolyl-2'-deoxyriboside triphosphate] | 13.8 | 16.4 | 4.8 |  |
